The text below walks through data of patent publication US20010039287A1, “AROMATIC SULFONE HYDROXAMIC ACID METALLOPROTEASE INHIBITOR” (priority 1997, published 2001).

Where a name gives a salt, the structure may show the parent alone.

What is called IC50 is the midpoint of a concentration-inhibition curve.

Common to all, as to test: biochemical
One test deals with recombinant human MMP-13 (Homo sapiens, UniProt P45452).
A further test deals with T1, recombinant human MMP-1 (Homo sapiens, UniProt P03956).
T1 construct: made in house; host or cells: transfected HT-1080 cells (provided by Dr. Harold Welgus, Washington University)
T1 sequence (P03956 100-469): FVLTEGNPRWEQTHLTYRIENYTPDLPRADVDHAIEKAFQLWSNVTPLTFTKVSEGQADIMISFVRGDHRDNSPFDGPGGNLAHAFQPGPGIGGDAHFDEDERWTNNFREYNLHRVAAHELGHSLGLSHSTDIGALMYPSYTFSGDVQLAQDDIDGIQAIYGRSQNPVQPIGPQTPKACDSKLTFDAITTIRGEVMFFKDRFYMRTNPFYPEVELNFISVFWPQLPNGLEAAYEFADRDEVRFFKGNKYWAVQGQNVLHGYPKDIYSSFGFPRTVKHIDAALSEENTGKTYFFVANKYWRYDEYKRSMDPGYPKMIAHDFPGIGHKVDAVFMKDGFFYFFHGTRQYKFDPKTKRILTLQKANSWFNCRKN

A further test addresses T2, recombinant human MMP-2 (Homo sapiens, UniProt P08253).
T2 sequence (P08253 110-660): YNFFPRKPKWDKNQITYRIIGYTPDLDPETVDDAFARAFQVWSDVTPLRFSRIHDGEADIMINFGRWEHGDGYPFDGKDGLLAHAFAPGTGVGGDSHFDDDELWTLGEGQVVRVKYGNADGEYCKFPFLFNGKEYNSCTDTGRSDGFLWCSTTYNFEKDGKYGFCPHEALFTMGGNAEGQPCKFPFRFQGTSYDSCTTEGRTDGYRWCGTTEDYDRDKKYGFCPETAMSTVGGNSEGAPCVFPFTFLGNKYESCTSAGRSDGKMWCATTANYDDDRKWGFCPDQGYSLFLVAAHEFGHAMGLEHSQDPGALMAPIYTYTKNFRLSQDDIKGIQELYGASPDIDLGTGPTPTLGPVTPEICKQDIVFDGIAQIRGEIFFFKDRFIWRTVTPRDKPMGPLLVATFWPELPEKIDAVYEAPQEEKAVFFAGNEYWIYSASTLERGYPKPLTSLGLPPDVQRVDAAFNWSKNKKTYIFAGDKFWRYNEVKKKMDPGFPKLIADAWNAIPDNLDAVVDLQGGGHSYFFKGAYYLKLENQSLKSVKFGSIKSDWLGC
The following applies: MMP-2 IC50 (nM), Inhibition Table B.

Turning to `O=C(NO)C1(S(=O)(=O)c2ccc(Oc3ccc4c(c3)OCO4)cc2)CCNCC1` [Example 40, 4-[[4-(1,3-benzodioxol-5-yloxy)phenyl]sulfonyl]-N-hydroxy-4-piperidinecarboxamide, Monohydrochloride], the half-maximal inhibitory concentration (IC50) on recombinant human MMP-13 was 1.9 nM; at recombinant human MMP-1, 4400 nM; on recombinant human MMP-2 it was 0.4 nM.

Take `O=C(NO)C1(S(=O)(=O)c2ccc(Oc3ccccc3)cc2)CCOCC1` [Example 94, Tetrahydro-N-hydroxy-4-[(4-phenoxyphenyl)sulfonyl]-2H-pyran-4-carboxamide]: the concentration for half-maximal inhibition (IC50) at recombinant human MMP-1 is 268 nM.

For `O=C(NO)C1(S(=O)(=O)c2ccc(Oc3ccc(OC(F)(F)F)cc3)cc2)CCOCC1` [Example 69], the IC50 on recombinant human MMP-1 turned out to be 1140 nM.

On to `O=C(NO)C1(S(=O)(=O)c2ccc(Oc3ccc(Cl)cc3)cc2)CCOCC1` [Example 100, 4-[[4-(4-chlorophenoxy)-phenyl]sulfonyl]-tetrahydro-N-hydroxy-2H-pyran-4-carboxamide], for which the IC50 at recombinant human MMP-13 amounted to 0.15 nM; on recombinant human MMP-1 it was 435 nM.

For the compound `C#CCN1CCC(C(=O)NO)(S(=O)(=O)c2ccc(Oc3ccc(OC)cc3)cc2)CC1` [Example 15], the IC50 on recombinant human MMP-13 was found to be 0.4 nM.

Take `O=C(NO)C1(S(=O)(=O)c2ccc(Oc3cccc(Cl)c3)cc2)CCOCC1` [Example 101, 4-[[4-(3-chlorophenoxy)-phenyl]sulfonyl]tetrahydro-N-hydroxy-2H-pyran-4-carboxamide]: the 50% inhibitory concentration (IC50) came out at 0.45 nM at recombinant human MMP-13, 1800 nM on recombinant human MMP-1 and 0.3 nM on recombinant human MMP-2.

For the compound `O=C(NO)C1(S(=O)(=O)c2ccc(Oc3ccc(Cl)c(Cl)c3)cc2)CCOCC1` [Example 71, 4-[[4-(3,4-dichlorophenoxy)-phenyl]sulfonyl]-tetrahydro-N-hydroxy-2H-pyran-4-carboxamide], the values for the half-maximal inhibitory concentration (IC50) at recombinant human MMP-13, on recombinant human MMP-1 and on recombinant human MMP-2 were 0.8 nM, 3600 nM and 0.35 nM, respectively.
